Values quoted from earlier work in publication PMC11505911, “Design and Synthesis of Small Molecule Probes of MDA-9/Syntenin” (Biomolecules, 2024).

Target: T1, MDA-9/Syntenin (Homo sapiens, UniProt O00560)
T1 construct: made in house
T1 sequence (O00560 1-298): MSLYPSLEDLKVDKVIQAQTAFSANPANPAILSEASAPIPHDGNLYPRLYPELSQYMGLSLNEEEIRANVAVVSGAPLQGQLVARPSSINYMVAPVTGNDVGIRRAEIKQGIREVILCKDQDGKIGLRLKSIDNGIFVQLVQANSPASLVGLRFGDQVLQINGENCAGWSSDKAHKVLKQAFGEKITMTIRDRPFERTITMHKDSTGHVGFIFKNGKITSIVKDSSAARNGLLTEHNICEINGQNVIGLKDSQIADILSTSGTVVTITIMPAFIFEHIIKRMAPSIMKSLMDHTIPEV
Parameters: method as in printed
Conditions: pre-PDZ1i molecules studied en route to the discovery of PDZ1i; ref not given; cited from earlier work

Compound: O=C(Nc1cc(Cl)c(O)c(Cl)c1)c1nc2[nH]c3c(c(=O)n2n1)CCC3 [112F11]
- IC50: 71.8 µM
